Tests used:
[1] = test system: monocytes purified from the bone marrow of NOD mice; test: Cytokine release by monocytes purified from NOD bone marrow; assay type: cell-based, mouse; conditions: compared to the other two peptides
Description: (§1) FIG. 12-Concentrations of different cytokines produced by purified cells from NOD bone marrow cultured with peptides. 4×10^5 cells were incubated per well with peptide 72, or DIF-P, or DIF-[…], or DIF-[…], or without stimulus for 24 hours or 48 hours before collecting the supernatant. Cells are (A) monocytes and (B) neutrophils. HL-60, Jurkat and NALM-6 cells were grown and maintained in complete culture medium in a humidified 5% CO2, atmosphere at 37° C. […] Human splenocytes from buffy coats were collected by density gradient using Histopaque 1077 (Histopaque®-1077, 10771 sigma) as described elsewhere (Johnston, L., Harding, S. A. & La Flamme, A. C. Comparing methods for ex vivo characterization of human monocyte phenotypes and in vitro responses. Immunobiology 2015, 220, 1305-1310). Cells from bone marrow were obtained disrupting femur and tibia as explained elsewhere too (Liu, X. & Quan, N. Immune Cell Isolation from Mouse Femur Bone Marrow. Bio-protocol 5, 2015). […] After 1 hour, 24 hours or 48 hours, cells were analysed by flow cytometry and culture supernatants stored at -80° C. until use. Culture supernatants from mice proliferation assays were collected and IL-2, IL-4, IL-6, IFN-γ, IL-10, TNF-α and IL-17 cytokine amounts analysed by flow cytometry using CBA kit (560485, BD). […]

[2] = test system: neutrophils purified from the bone marrow of NOD mice; test: Cytokine release by neutrophils purified from NOD bone marrow; assay type: cell-based, mouse; conditions: compared to the other two peptides
Description: as §1

monocytes = test: Apoptosis assay of purified monocytes from NOD bone marrow; assay type: cell-based, mouse
Description: (§2) FIG. 14—Representative dot plots of apoptosis assay of purified monocytes from NOD bone marrow after culturing them with different peptides. Annexin V and PI positive cells were analysed after culturing 4×10^5 monocytes for 24 or 48 hours with peptide 72, or DIF-P, or DIF-P3K, or without stimulus (n=4).
(§3) HL-60, Jurkat and NALM-6 cells were grown and maintained in complete culture medium in a humidified 5% CO2, atmosphere at 37° C. […] After 1 hour, 24 hours or 48 hours, cells were analysed by flow cytometry and culture supernatants stored at −80° C. until use.
(§4) For cell death and apoptosis analysis, 400.000 of primary cells or 100.000 of cell line cells were incubated in 96-well plates in 200 μL of complete culture medium for 24 h at 37° C. and 5% CO2 in the absence or presence of 55 μM of different peptides. After 1 hour, 24 hours or 48 hours, apoptosis was measured by CFBlue Annexin V Apoptosis Detection Kit with PI (ANXVKCFB-100T, Immunostep), following kit protocol. […] Cell suspensions were analysed by flow cytometry using FACS CANTO II instrumentation (BD, Biosciences, San Jose, Calif.) and Flowjo (version 8.7) software.

[3] = test system: NOD.RAG-2−/− mouse bone marrow cells; test: Cytokine release by NOD.RAG-2−/− mouse bone marrow cells; assay type: cell-based; conditions: NOD.RAG-2−/− bone marrow cells, 24 h and 48 h
Description: FIG. 11—Concentrations of different cytokines produced by NOD.RAG2−/− cells from bone marrow cultured with peptides. 4×10^5 cells were incubated per well with peptide 72, or DIF-P, or DIF-P3K, or DIF-P8R, or without stimulus for 24 hours or 48 hours before collecting the supernatant (*=p<0.05).
HL-60, Jurkat and NALM-6 cells were grown and maintained in complete culture medium in a humidified 5% CO2, atmosphere at 37° C. […] Human splenocytes from buffy coats were collected by density gradient using Histopaque 1077 (Histopaque®-1077, 10771 sigma) as described elsewhere (Johnston, L., Harding, S. A. & La Flamme, A. C. Comparing methods for ex vivo characterization of human monocyte phenotypes and in vitro responses. Immunobiology 2015, 220, 1305-1310). Cells from bone marrow were obtained disrupting femur and tibia as explained elsewhere too (Liu, X. & Quan, N. Immune Cell Isolation from Mouse Femur Bone Marrow. Bio-protocol 5, 2015). […] After 1 hour, 24 hours or 48 hours, cells were analysed by flow cytometry and culture supernatants stored at −80° C. until use.
Culture supernatants from mice proliferation assays were collected and IL-2, IL-4, IL-6, IFN-γ, IL-10, TNF-α and IL-17 cytokine amounts analysed by flow cytometry using CBA kit (560485, BD). […]

purified neutrophils = test: Apoptosis assay of purified neutrophils from NOD bone marrow; assay type: cell-based, mouse
Description: as §2, with “15—Representative” for “14—Representative”, “neutrophils” for “monocytes”
as §3, §4

NALM-6 cells = test: Cleaved Caspase-3 expression in NALM-6 cells; assay type: cell-based, human; conditions: 55 μM
Description: FIG. 5—Representative images of the expression of cleaved Caspase-3 in NALM-6 cells cultured with different peptides. […] The line in bold is equivalent to the expression of the control cells without peptide, and clearer curves are equivalent to cells incubated with different peptides (n=3).
HL-60, Jurkat and NALM-6 cells were grown and maintained in complete culture medium in a humidified 5% CO2, atmosphere at 37° C. […] Human splenocytes from buffy coats were collected by density gradient using Histopaque 1077 (Histopaque®-1077, 10771 sigma) as described elsewhere (Johnston, L., Harding, S. A. & La Flamme, A. C. Comparing methods for ex vivo characterization of human monocyte phenotypes and in vitro responses. Immunobiology 2015, 220, 1305-1310). Cells from bone marrow were obtained disrupting femur and tibia as explained elsewhere too (Liu, X. & Quan, N. Immune Cell Isolation from Mouse Femur Bone Marrow. Bio-protocol 5, 2015). Monocytes and neutrophils from bone marrow were purified using the Stemcell kits (19861 and 19762 subsequently) and the kit protocol was followed. Cells were incubated in 96-well tissue culture plates (4×10^5/well for primary cells and 1×10^5 for cells lines) at 37° C. in 5% CO2 in complete culture medium using 55 μM of different Peripherin peptides. For proliferation assays, cells were labelled with CFSE (C34554, life technologies). After 1 hour, 24 hours or 48 hours, cells were analysed by flow cytometry and culture supernatants stored at −80° C. until use.
After 1 hour, 24 hours or 48 hours, apoptosis was measured by CFBlue Annexin V Apoptosis Detection Kit with PI (ANXVKCFB-100T, Immunostep), following kit protocol. For cleaved caspasa-3 intracellular staining, mononuclear cells were permeabilised following the manufacturer's instructions of the FoxP3 Staining Buffer Set (00-5523-00, eBioscience) and the cleaved caspasa-3-Pacific Blue (8788S, Cell Signalling) was used for staining. Cell suspensions were analysed by flow cytometry using FACS CANTO II instrumentation (BD, Biosciences, San Jose, Calif.) and Flowjo (version 8.7) software.

Row | Compound | stimulation of inflammatory cytokines IL-6 and IL-4 [1] | stimulation of inflammatory cytokines IL-6 and IL-4 [2] | induction of apoptosis and/or pyroptosis (monocytes) | release of inflammatory cytokines IL-6 and IL-4 [3] | induction of apoptosis and/or pyroptosis (purified neutrophils) | cell death determined by cleaved Caspase-3 expression (NALM-6 cells; 1 hour) [%] | cell death determined by cleaved Caspase-3 expression (NALM-6 cells; 24 hours) [%]
1 | CC[C@H](C)[C@H](NC(=O)[C@H](CCC(=O)O)NC(=O)[C@@H](NC(=O)[C@H](CC(=O)O)NC(=O)[C@H](CC(C)C)NC(=O)[C@H](C)NC(=O)[C@H](CCSC)NC(=O)[C@H](CCCCN)NC(=O)[C@@H](NC(=O)[C@H](CC(N)=O)NC(=O)[C@H](CC(C)C)NC(=O)[C@@H](N)CC(C)C)C(C)C)[C@@H](C)CC)C(=O)N[C@@H](CCCCN)C(=O)N[C@@H](CCCCN)C(=O)N[C@@H](CCCCN)C(=O)O [DIF-P3K, LLNVKMALDIEIKKK] | remarkably high | still significant | more efficient than peptide DIF-P | similarly efficient | more efficient than peptide DIF-P | 22 | 40
2 | CC[C@H](C)[C@H](NC(=O)[C@H](CCC(=O)O)NC(=O)[C@@H](NC(=O)[C@H](CC(=O)O)NC(=O)[C@H](CC(C)C)NC(=O)[C@H](C)NC(=O)[C@H](CCSC)NC(=O)[C@H](CCCCN)NC(=O)[C@@H](NC(=O)[C@H](CC(N)=O)NC(=O)[C@H](CC(C)C)NC(=O)[C@@H](N)CC(C)C)C(C)C)[C@@H](C)CC)C(=O)N[C@@H](CCCNC(=N)N)C(=O)N[C@@H](CCCNC(=N)N)C(=O)N[C@@H](CCCNC(=N)N)C(=O)N[C@@H](CCCNC(=N)N)C(=O)N[C@@H](CCCNC(=N)N)C(=O)N[C@@H](CCCNC(=N)N)C(=O)N[C@@H](CCCNC(=N)N)C(=O)N[C@@H](CCCNC(=N)N)C(=O)O [DIF-P8R] |  |  | more efficient than peptide DIF-P | similarly efficient | more efficient than peptide DIF-P | 55 | 85

Reference: patent US20220251158A1, “INTERMEDIATE FILAMENT-DERIVED PEPTIDES AND THEIR USES” (UNIVERSITAT DE LLEIDA, priority 2019, published 2022)
